The series in a line: Biological potency of Interferon alfa-2a (monograph Interferon alfa-2 Concentrated solution Nr 1110, European Pharmacopoeia 4th Edition). As to conditions: according to monograph Interferon alfa-2 Concentrated solution; active principle before extrusion.

Regarding “Interferon alfa-2a: protein Interferon alfa-2a, active principle with excipients”, the Biological potency is reported as 2.3×10^8 IU/mg of protein.
